Usually pIC50 stands for −log10 of the IC50, conventionally taken in molar units.

Protein sequences, listed by entry. Tags and fused reporters are not part of them. Residues count along the entry.
UniProt P25774, 115-331 limits assumed: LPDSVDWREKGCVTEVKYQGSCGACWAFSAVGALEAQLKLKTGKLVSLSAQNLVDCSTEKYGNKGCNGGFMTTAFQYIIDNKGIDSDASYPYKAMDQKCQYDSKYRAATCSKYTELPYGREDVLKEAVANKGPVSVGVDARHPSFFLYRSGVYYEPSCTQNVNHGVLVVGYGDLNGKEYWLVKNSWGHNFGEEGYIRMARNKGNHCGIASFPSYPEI

The assay addresses Recombinant human cathepsin S (CatS) (Homo sapiens, UniProt P25774). Kind of assay: Recombinant human cathepsin S (CatS) inhibition assay, fluorogenic substrate Z-Valine-Valine-Arginine-AMC.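 Note: Baculovirus-expressed CatS in pH 5.0 sodium acetate buffer with DTT and NaCl, fluorescence read each minute over 20 min, inhibition derived from rate slope.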 The note with it: read-out: CatS IC50; Table 3; average of results obtained.

Structures are written as SMILES. pIC50: −log10 of the molar value.

With `CS(=O)(=O)N1CCc2c(c(-c3ccc(Cl)c(C#Cc4ccc(CN[C@@H]5CCCc6ccccc65)cc4)c3)nn2CCCN2CCN(c3ccccc3)CC2)C1`, the pIC50 was 7.70.

Turning to `CS(=O)(=O)N1CCc2c(c(-c3ccc(Cl)c(C#Cc4ccc(CN[C@@H]5c6ccccc6C[C@@H]5O)cc4)c3)nn2CCCN2CCN(c3ccccc3)CC2)C1`, the pIC50 is 7.40.

For the origin of these results see patent publication US20080200454A1, “CARBON-LINKED TETRAHYDRO-PYRAZOLO-PYRIDINE MODULATORS OF CATHEPSIN S” (priority 2007, published 2008).
